Source: US11066414B2, “Cot modulators and methods of use thereof” (Gilead Sciences, Inc., priority 2015, dated 2021)

test system: TNFα; assay: Cot Monocyte TNFα Cell Based Assay; details: Homo sapiens, Monocyte, read-out: EC50 TNF, LPS-stimulated human monocytes, TNFα

Structure (SMILES)	EC50 [nM]
CC(C)(C)N1CCC(n2cc([C@@H](Nc3cc(Cl)c4ncc(C#N)c(NC5CCCCC5)c4c3)c3cccnc3)nn2)CC1 [Example 287, (S)-6-(((1-(1-(tert-butyl)piperidin-4-yl)-1H-1,2,3-triazol-4-yl)(pyridin-3-yl)methyl)amino)-8-chloro-4-(cyclohexylamino)quinoline-3-carbonitrile]	373
Cn1ncc2c([C@H](Nc3cc(Cl)c4ncc(C#N)c(NCC(C)(C)C)c4c3)c3cn(C4CC4)nn3)cccc21 [Example 423, (S)-8-chloro-6-(((1-cyclopropyl-1H-1,2,3-triazol-4-yl)(1-methyl-1H-indazol-4-yl)methyl)amino)-4-(neopentylamino)-quinoline-3-carbonitrile]	71
CC(C)(C)CNc1c(C#N)cnc2c(C#N)cc(N[C@H](c3cn(C4(C(F)F)CC4)nn3)c3cccc4ncsc34)cc12 [Example 424, (S)-6-((benzo[d]thiazol-7-yl(1-(1-(difluoromethyl)cyclopropyl)-1H-1,2,3-triazol-4-yl)methyl)amino)-4-(neopentylamino)quinoline-3,8-dicarbonitrile]	37
CC(C)(C)CNc1c(C#N)cnc2c(C#N)cc(N[C@H](c3cn(C4(C(F)(F)F)CC4)nn3)c3csc4c3CCN(C3COC3)C4)cc12 [Example 429, (S)-4-(neopentylamino)-6-(((6-(oxetan-3-yl)-4,5,6,7-tetrahydrothieno[2,3-c]pyridin-3-yl)(1-(1-(trifluoromethyl)cyclopropyl)-1H-1,2,3-triazol-4-yl)methyl)amino)-quinoline-3,8-dicarbonitrile]	56
CC(C)(C)CNc1c(C#N)cnc2c(Cl)cc(N[C@H](c3cn(C4(C)CC4)nn3)c3cccc4ncsc34)cc12 [Example 434, (S)-6-((benzo[d]thiazol-7-yl(1-(1-methylcyclopropyl)-1H-1,2,3-triazol-4-yl)methyl)amino)-8-chloro-4-(neopentylamino)quinoline-3-carbonitrile]	61
CC(C)(C)CNc1c(C#N)cnc2c(Cl)cc(N[C@H](c3cn(C4(C(F)F)CC4)nn3)c3cccc4c3CNC4)cc12 [Example 445, (S)-8-chloro-6-(((1-(1-(difluoromethyl)-cyclopropyl)-1H-1,2,3-triazol-4-yl)(isoindolin-4-yl)methyl)amino)-4-(neopentylamino)quinoline-3-carbonitrile]	71
CC(C)(C)CNc1c(C#N)cnc2c(F)cc(N[C@H](c3cn(C4(C(F)(F)F)CC4)nn3)c3cccc4ncsc34)cc12 [Example 455, (S)-6-((benzo[d]thiazol-7-yl(1-(1-(trifluoromethyl)cyclopropyl)-1H-1,2,3-triazol-4-yl)methyl)amino)-8-fluoro-4-(neopentylamino)quinoline-3-carbonitrile]	222
CC(C)(C)CNc1c(C#N)cnc2c(Cl)cc(N[C@H](c3cn(C4(CO)CC4)nn3)c3cccc4ncsc34)cc12 [Example 458, (S)-6-((benzo[d]thiazol-7-yl(1-(1-(hydroxymethyl)cyclopropyl)-1H-1,2,3-triazol-4-yl)methyl)amino)-8-chloro-4-(neopentylamino)quinoline-3-carbonitrile]	87
CC(C)(C)CNc1c(C#N)cnc2c(C#N)cc(N[C@H](c3cn(C4CC4)nn3)c3cccc4ncccc34)cc12 [Example 467, (S)-6-(((1-cyclopropyl-1H-1,2,3-triazol-4-yl)(quinolin-5-yl)methyl)amino)-4-(neopentylamino)quinoline-3,8-dicarbonitrile]	47
Cc1nc(F)ccc1[C@H](Nc1cc(Cl)c2ncc(C#N)c(NCC(C)(C)C)c2c1)c1cn(C2(C#N)CC2)nn1 [Example 476, (S)-8-chloro-6-(((1-(1-cyanocyclopropyl)-1H-1,2,3-triazol-4-yl)(6-fluoro-2-methylpyridin-3-yl)methyl)amino)-4-(neopentylamino)-quinoline-3-carbonitrile]	71
Cc1nc(F)ccc1[C@H](Nc1cc(Cl)c2ncc(C#N)c(NCC(C)(C)C)c2c1)c1cn(C2(C(N)=O)CCC2)nn1 [Example 478, (S)-1-(4-(((8-chloro-3-cyano-4-(neopentylamino)quinolin-6-yl)amino)(6-fluoro-2-methylpyridin-3-yl)methyl)-1H-1,2,3-triazol-1-yl)cyclobutane-1-carboxamide]	77
Cn1cnc2cccc([C@H](Nc3cc(Cl)c4ncc(C#N)c(NCC(C)(C)C)c4c3)c3cn(C4(C(F)F)CC4)nn3)c21 [Example 499, (S)-8-chloro-6-(((1-(1-(difluoromethyl)-cyclopropyl)-1H-1,2,3-triazol-4-yl)(1-methyl-1H-benzo[d]imidazol-7-yl)methyl)amino)-4-(neopentylamino)-quinoline-3-carbonitrile]	97
Cc1nc(F)ccc1[C@H](Nc1cc(F)c2ncc(C#N)c(NCC(C)(C)C)c2c1)c1cn(C2(C(F)F)CC2)nn1 [Example 514, (S)-6-(((1-(1-(difluoromethyl)cyclopropyl)-1H-1,2,3-triazol-4-yl)(6-fluoro-2-methylpyridin-3-yl)methyl)amino)-8-fluoro-4-(neopentylamino)quinoline-3-carbonitrile]	77
CC(C)(C)CNc1c(C#N)cnc2c(C#N)cc(N[C@H](c3cn(C4(C(F)(F)F)CC4)nn3)c3cccc4ccncc34)cc12 [Example 535, (S)-6-((isoquinolin-8-yl(1-(1-(trifluoro-methyl)cyclopropyl)-1H-1,2,3-triazol-4-yl)methyl)amino)-4-(neopentylamino)-quinoline-3,8-dicarbonitrile]	47
CCc1ncccc1[C@H](Nc1cc(Cl)c2ncc(C#N)c(NCC(C)(C)C)c2c1)c1cn(C2(C(F)F)CC2)nn1 [Example 604, (S)-8-chloro-6-(((1-(1-(difluoromethyl)cyclo-propyl)-1H-1,2,3-triazol-4-yl)(2-ethylpyridin-3-yl)methyl)amino)-4-(neopentylamino)-quinoline-3-carbonitrile]	71
CC(C)(C)CNc1c(C#N)cnc2c(Cl)cc(N[C@H](c3cn(C4(C(F)(F)F)CC4)nn3)c3ccc(F)c4ncccc34)cc12 [Example 617, (S)-8-chloro-6-(((8-fluoroquinolin-5-yl)(1-(1-(trifluoromethyl)cyclopropyl)-1H-1,2,3-triazol-4-yl)methyl)amino)-4-(neopentylamino)quinoline-3-carbonitrile]	77
Cn1ccc2c([C@H](Nc3cc(Cl)c4ncc(C#N)c(NCC(C)(C)C)c4c3)c3cn(C4(C(F)(F)F)CC4)nn3)cccc2c1=O [Example 618, (S)-8-chloro-6-(((2-methyl-1-oxo-1,2-dihydroisoquinolin-5-yl)(1-(1-(trifluoromethyl)cyclopropyl)-1H-1,2,3-triazol-4-yl)methyl)amino)-4-(neopentylamino)quinoline-3-carbonitrile]	37
Cc1nc(F)ccc1[C@H](Nc1cc(C#N)c2ncc(C#N)c(NCC(C)(C)C)c2c1)c1cn(C23CC(C2)C3)nn1 [Example 649, (S)-6-(((1-(bicyclo[1.1.1]pentan-1-yl)-1H-1,2,3-triazol-4-yl)(6-fluoro-2-methylpyridin-3-yl)methyl)amino)-4-(neopentylamino)quinoline-3,8-dicarbonitrile]	14
CC(C)(C)CNc1c(C#N)cnc2c(Cl)cc(N[C@H](c3cn(C4(C(F)F)CC4)nn3)c3ccc(F)c4ncccc34)cc12 [Example 653, (S)-8-chloro-6-(((1-(1-(difluoromethyl)cyclopropyl)-1H-1,2,3-triazol-4-yl)(8-fluoroquinolin-5-yl)methyl)amino)-4-(neopentylamino)quinoline-3-carbonitrile]	37
Cc1nc(F)ccc1[C@H](Nc1cc(Cl)c2ncc(C#N)c(NCC(C)(C)C)c2c1)c1nnn(C2CC2)c1C#N [Example 686, (S)-8-chloro-6-(((5-cyano-1-cyclopropyl-1H-1,2,3-triazol-4-yl)(6-fluoro-2-methylpyridin-3-yl)methyl)amino)-4-(neopentylamino)quinoline-3-carbonitrile]	77
Cn1ccc2c([C@H](Nc3cc(Cl)c4ncc(C#N)c(NCC(C)(C)C(F)(F)F)c4c3)c3cn(C4(C5CC5)CC4)nn3)cccc2c1=O [Example 783, (S)-6-(((1-([1,1′-bi(cyclopropan)]-1-yl)-1H-1,2,3-triazol-4-yl)(2-methyl-1-oxo-1,2-dihydroisoquinolin-5-yl)methyl)amino)-8-chloro-4-((3,3,3-trifluoro-2,2-dimethylpropyl)amino)quinoline-3-carbonitrile]	23
Cn1ccc2c([C@H](Nc3cc(Cl)c4ncc(C#N)c(NCC(C)(C)C(F)(F)F)c4c3)c3cn(C45CC(C4)C5)nn3)cccc2c1=O [Example 785, (S)-6-(((1-(bicyclo[1.1.1]pentan-1-yl)-1H-1,2,3-triazol-4-yl)(2-methyl-1-oxo-1,2-dihydroisoquinolin-5-yl)methyl)amino)-8-chloro-4-((3,3,3-trifluoro-2,2-dimethylpropyl)amino)quinoline-3-carbonitrile]	23

same assay, conditions: read-out: EC50 TNF; LPS-stimulated human monocytes, TNFα

Structure (SMILES)	EC50 [nM]
Cc1n[nH]c2cccc([C@H](Nc3cc(C#N)c4ncc(C#N)c(NCC(C)(C)C)c4c3)c3cn(C4(C(F)F)CC4)nn3)c12 [Example 571]	77
Cc1nc(F)ccc1[C@H](Nc1cc(Cl)c2ncc(C#N)c(NCC(C)(C)C)c2c1)c1cn(C(F)(F)CO)nn1 [Example 584, (S)-8-chloro-6-(((1-(i, 1-difluoro-2-hydroxyethyl)-1H-1,2,3-triazol-4-yl)(6-fluoro-2-methylpyridin-3-yl)methyl)amino)-4-(neopentylamino)quinoline-3-carbonitrile]	53
CC(C)(C)CNc1c(C#N)cnc2c(C#N)cc(N[C@H](c3cn(C4(C5CC5)CC4)nn3)c3cccc4ncccc34)cc12 [Example 696]	14
Cc1ncsc1[C@H](Nc1cc(Cl)c2ncc(C#N)c(NCC(C)(C)C)c2c1)c1cn(C2(C(F)(F)F)CC2)nn1 [Example 701, (R)-8-chloro-6-(((4-methylthiazol-5-yl)(1-(1-(trifluoromethyl)cyclopropyl)-1H-1,2,3-triazol-4-yl)methyl)airiino)-4-(neopentylamino)quinoline-3-carbonitrile]	147
